This passage reports IC50 results from ChEMBL document CHEMBL4339198, “Use of a Conformational-Switching Mechanism to Modulate Exposed Polarity: Discovery of CCR2 Antagonist BMS-741672” (ACS Med Chem Lett, 2019).

The chains behind the UniProt entries cited, without tags or fusion partners. Where a name states a change or a piece, a line headed by the entry shows the natural chain unless it says otherwise.
UniProt P41597: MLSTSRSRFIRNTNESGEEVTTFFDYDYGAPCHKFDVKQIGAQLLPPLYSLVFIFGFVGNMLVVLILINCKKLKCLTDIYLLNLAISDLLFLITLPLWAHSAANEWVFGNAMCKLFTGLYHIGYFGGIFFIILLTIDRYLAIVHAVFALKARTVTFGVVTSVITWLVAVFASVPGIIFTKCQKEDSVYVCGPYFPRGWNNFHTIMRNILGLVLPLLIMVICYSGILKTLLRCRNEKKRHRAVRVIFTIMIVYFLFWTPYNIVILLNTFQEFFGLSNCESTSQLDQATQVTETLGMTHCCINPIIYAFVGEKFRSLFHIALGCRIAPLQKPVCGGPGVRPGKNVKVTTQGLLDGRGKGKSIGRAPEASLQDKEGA

The target of this test is C-C chemokine receptor type 2 (Homo sapiens, UniProt P41597).

Broadly, the IC50 is the point on the concentration scale where inhibition reaches its midpoint. Low values mean greater potency, high ones weaker potency. In turn, `CC(=O)N[C@@H]1C[C@H](N(C)C(C)C)CC[C@@H]1N1CC[C@H](Nc2ncnc3ccc(C(F)(F)F)cc23)C1=O` returned an IC50 of 1.1 nM.
